This is a selection: effects in other tests are not listed, and their absence says nothing.
Assays:
grain corn = test: Midwestern crop study, grain corn yield; format: in vivo; settings: nitrogen application rate of 120 lbs N/acre; grain yield at 15.5% moisture
providence sweet corn = test: Northeastern crop study, sweet corn harvestable yield; settings: sandy soil, sidedress
Procedure: Two Studies were completed in which two different crops were planted, in different geographies (i.e. midwestern US and northeastern US).
For the northeastern crop study, providence sweet corn was grown. […] One coated urea fertilizer composition was evaluated, urea coated with hydrotalcite (12 wt. %) and wax (3%, paraffin wax) (prepared as described above). The corn followed a typical agricultural schedule, planting occurred in July and harvesting occurred in September. Lysimeter samples were collected and analyzed for nitrate. The crop was reported as a harvestable yield (e.g. ears/acre and 100 lb/acre).
In both cases, the coated urea fertilizer was evaluated against controls including: urea (uncoated/unmodified), UAN (Urea/ammonium nitrate aqueous solution), and ESN (Environmentally Smart Nitrogen, Agrium, Inc.).
For the northeastern crop study, planting occurred in early July, with fertilizer application occurring (via sidedress) in early august and the harvest occurring in mid-September.

Substance: ammonium nitrate
- grain yield (grain corn): 187.2 bu/acre
- Yield (100 wt) (providence sweet corn; N Rate 100 lbs N/acre): 87 100 wt
- Yield (1,000 ears/acre) (providence sweet corn; N Rate 100 lbs N/acre): 15.8 1,000 ears/acre
- Yield (100 wt) (providence sweet corn; N Rate 140 lbs N/acre): 99 100 wt
- Yield (1,000 ears/acre) (providence sweet corn; N Rate 140 lbs N/acre): 16.0 1,000 ears/acre
